The record followed here is patent US9127001B2, “Substituted 4,5,6,7-tetrahydro-1H-pyrazolo[4,3-c]pyridines, their use as medicament, and pharmaceutical preparations comprising them” (Sanofi, priority 2011, dated 2015).

Amino acid sequences for entries named in this document (tags omitted). A change or cut given only in a name is not applied to a line headed by its entry.
UniProt O14649: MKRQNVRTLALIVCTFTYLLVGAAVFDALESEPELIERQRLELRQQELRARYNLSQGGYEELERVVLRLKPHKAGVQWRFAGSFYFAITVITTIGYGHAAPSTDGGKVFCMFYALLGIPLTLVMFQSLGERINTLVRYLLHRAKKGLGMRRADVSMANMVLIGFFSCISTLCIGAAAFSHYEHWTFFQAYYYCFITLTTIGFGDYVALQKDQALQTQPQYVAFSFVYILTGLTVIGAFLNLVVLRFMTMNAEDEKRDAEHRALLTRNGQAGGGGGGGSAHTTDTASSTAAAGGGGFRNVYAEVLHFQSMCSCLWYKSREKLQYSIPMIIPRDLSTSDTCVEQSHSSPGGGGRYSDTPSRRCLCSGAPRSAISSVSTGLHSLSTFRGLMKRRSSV

The test has as its target Human TASK-1 channels (Homo sapiens (Human), UniProt O14649). Nature of the test: Activity on the TASK-1 channel in Xenopus oocytes (two-microelectrode voltage clamp). Particulars: human TASK-1 expressed in Xenopus oocytes, currents during pulses to 40 mV, room temperature. In kind it is cell-based. Here is the method: Human TASK-1 channels were expressed in Xenopus oocytes. For this purpose, oocytes were isolated from Xenopus laevis and defoliculated. Subsequently, TASK-1-encoding RNA synthesized in vitro was injected into oocytes. After two days of TASK-1 protein expression, TASK-1 currents were measured by two-microelectrode voltage clamp. Data were acquired and analyzed using a TEC-10cx amplifier (NPI Electronic, Tamm, Germany) connected to an ITC-16 interface (Instrutech Corp., Long Island, USA) and Pulse software (HEKA Elektronik, Lambrecht, Germany). Oocytes were clamped to −90 mV and TASK-1 mediated currents were measured during 500 ms voltage pulses to 40 mV. Oocytes were continuously superfused with ND96 buffer containing: NaCl 96 mM, KCl 2 mM, CaCl2 1.8 mM, MgCl2 1 mM, HEPES 5 mM (pH adjusted to 7.4 with NaOH). All experiments were performed at room temperature.
Test substances were consecutively added to the bath solution at rising concentrations. […] IC50 values were obtained by fitting the data to the general dose-response equation.
The term IC50 denotes the concentration that gives 50% inhibition. Lower therefore signals greater potency. The compound `CCC(c1ccc(Cl)cc1)n1nc(-c2ccc(F)cc2)c2c1CCN(C(C)=O)C2` (single isomer, unassigned) [Example 6bl, 1-[1-[1-(4-Chloro-phenyl)-propyl]-3-(4-fluoro-phenyl)-1,4,6,7-tetrahydro-pyrazolo[4,3-c]pyridin-5-yl]-ethanone] returned a concentration for half-maximal inhibition (IC50) of 966 nM.

With `CCC(c1ccc(Cl)cc1)n1nc(-c2ccc(F)cc2)c2c1CCN(C(C)=O)C2` (single isomer, unassigned) [Example 6bm, 1-[1-[1-(4-Chloro-phenyl)-propyl]-3-(4-fluoro-phenyl)-1,4,6,7-tetrahydro-pyrazolo[4,3-c]pyridin-5-yl]-ethanone], the IC50 was 251 nM. In turn, `CC(c1ccc(F)cc1)n1nc(-c2ccc(F)cc2)c2c1CCN(S(C)(=O)=O)C2` (single isomer, unassigned) [Example 9a] displayed an IC50 of 540 nM. `CC(c1ccc(F)cc1)n1nc(-c2ccc(F)cc2)c2c1CCN(S(C)(=O)=O)C2` (single isomer, unassigned) [Example 9b] registered an IC50 of 611 nM. As to `CCNC(=O)N1CCc2c(c(-c3ccc(F)cc3)nn2C(C)c2ccc(F)cc2)C1` (single isomer, unassigned) [Example 11b, 3-(4-Fluoro-phenyl)-1-[1-(4-fluoro-phenyl)-ethyl]-1,4,6,7-tetrahydro-pyrazolo[4,3-c]pyridine-5-carboxylic acid ethylamide], the IC50 was determined as 1520 nM.

For `CCNC(=O)N1CCc2c(c(-c3ccc(F)cc3)nn2C(C)c2ccc(F)cc2)C1` (single isomer, unassigned) [Example 11c, 3-(4-Fluoro-phenyl)-1-[1-(4-fluoro-phenyl)-ethyl]-1,4,6,7-tetrahydro-pyrazolo[4,3-c]pyridine-5-carboxylic acid ethylamide], half-maximal inhibition (IC50) required 1170 nM.
